Laboratory results reported in patent US9249087B2, “HDAC inhibitors and therapeutic methods using the same” (THE BOARD OF TRUSTEES OF THE UNIVERSITY OF ILLINOIS, priority 2011, dated 2016).
Counter-ions that a name gives are not always drawn.

Protein sequences, listed by entry. Tags and fused reporters are not part of them.
UniProt Q9UBN7, whole entry: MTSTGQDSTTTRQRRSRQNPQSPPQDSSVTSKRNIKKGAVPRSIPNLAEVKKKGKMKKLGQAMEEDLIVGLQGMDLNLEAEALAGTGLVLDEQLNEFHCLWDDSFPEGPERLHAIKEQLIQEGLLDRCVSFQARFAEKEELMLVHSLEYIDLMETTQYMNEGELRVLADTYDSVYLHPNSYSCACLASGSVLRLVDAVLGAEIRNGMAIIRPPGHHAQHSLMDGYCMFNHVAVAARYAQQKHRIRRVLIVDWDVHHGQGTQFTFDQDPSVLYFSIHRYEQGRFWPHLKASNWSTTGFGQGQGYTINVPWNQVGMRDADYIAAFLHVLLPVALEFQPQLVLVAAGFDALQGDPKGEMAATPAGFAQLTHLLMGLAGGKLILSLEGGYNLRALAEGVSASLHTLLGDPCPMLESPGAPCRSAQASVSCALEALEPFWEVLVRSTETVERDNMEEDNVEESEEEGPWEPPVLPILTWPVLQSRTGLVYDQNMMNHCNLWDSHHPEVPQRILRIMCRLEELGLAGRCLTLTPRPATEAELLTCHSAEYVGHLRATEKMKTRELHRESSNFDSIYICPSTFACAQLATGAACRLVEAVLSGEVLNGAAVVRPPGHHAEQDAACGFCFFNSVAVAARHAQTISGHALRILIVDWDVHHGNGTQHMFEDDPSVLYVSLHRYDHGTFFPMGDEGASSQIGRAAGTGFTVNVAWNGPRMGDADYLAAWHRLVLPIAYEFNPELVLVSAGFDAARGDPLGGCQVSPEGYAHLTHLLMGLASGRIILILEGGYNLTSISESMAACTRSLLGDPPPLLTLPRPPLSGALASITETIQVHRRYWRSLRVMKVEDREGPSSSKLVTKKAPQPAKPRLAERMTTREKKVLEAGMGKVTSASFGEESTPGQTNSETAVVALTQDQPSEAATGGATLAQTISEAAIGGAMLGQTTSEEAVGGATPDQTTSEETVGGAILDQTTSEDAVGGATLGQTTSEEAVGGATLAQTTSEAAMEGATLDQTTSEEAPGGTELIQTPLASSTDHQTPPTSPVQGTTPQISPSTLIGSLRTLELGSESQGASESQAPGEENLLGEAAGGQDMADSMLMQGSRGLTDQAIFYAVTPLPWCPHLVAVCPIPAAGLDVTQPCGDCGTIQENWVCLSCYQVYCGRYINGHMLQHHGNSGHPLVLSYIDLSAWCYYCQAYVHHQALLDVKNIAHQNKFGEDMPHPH

Target: Human HDAC6 (Homo sapiens (Human), UniProt Q9UBN7)
Experiment: HDAC6 fluorogenic peptide deacetylation inhibition assay
Assay type: biochemical
Conditions: ratio HDAC1 IC50/HDAC6 IC50

## CC(C)N(Cc1ccc(C(=O)NO)cc1)C(C)C [Compound 53, 4-((Diisopropylamino)methyl)-N-hydroxybenzamide]
  HDAC6 Selectivity (HDAC1/HDAC6): 192

## COC[C@H]1CCCN1Cc1ccc(C(=O)NO)cc1 [Compound 61]
Tested form: TFA
  HDAC6 Selectivity (HDAC1/HDAC6): > 24

## COC[C@@H]1CCCN1Cc1ccc(C(=O)NO)cc1 [Compound 59, (S)-N-Hydroxy-4-((2-(methoxymethyl)pyrrolidin-1-yl)methyl)benzamide.TFA]
Tested form: TFA
  HDAC6 Selectivity (HDAC1/HDAC6): 186
